The entries are a selection whose mix differs from that of the whole data set. A structure can be active in one record and inactive in another. Calls of active or inactive are those of the source. Rule as the data show it: active = growth inhibition above about 70%; inactive = the rest.
Columns and labels:
[1] = NCI Yeast Anticancer Drug Screen. Data for the rad50 strain (AID 155);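 also: 0% = growth of vehicle-only cultures of the same strain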; conditions: S. cerevisiae rad50 strain growth inhibition, hits give high values
[2] = NCI Yeast Anticancer Drug Screen. Data for the mec2-1 strain (AID 157); conditions: S. cerevisiae mec2-1 strain, hits give high values
[3] = NCI Yeast Anticancer Drug Screen. Data for the sgs1 mgt1 strain (AID 161);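 also: 0% = growth of cultures given vehicle only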; conditions: S. cerevisiae sgs1 mgt1 strain, hits give high values
[4] = NCI Yeast Anticancer Drug Screen. Data for the cln2 rad14 strain (AID 165);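 also: 0% = growth equal to vehicle treated cultures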; conditions: S. cerevisiae cln2 rad14 strain, hits give high values
[5] = NCI Yeast Anticancer Drug Screen. Data for the bub3 strain (AID 167); conditions: S. cerevisiae bub3 mutant strain, hits give high values
[6] = NCI Yeast Anticancer Drug Screen. Data for the mlh1 rad18 strain (AID 175); conditions: S. cerevisiae mlh1 rad18 strain growth inhibition, hits give high values
[7] = at 5.0 µM (retest, dose inferred, filed as 0.5)
[8] = at 50.0 µM (retest, dose inferred, filed as 5.0)

Measured: growth inhibition

CN(C)P(=O)(N(C)C)n1c(Nc2ccccc2)nnc1-c1ccccc1
inactive: [1]; at 1.2 µM -15% | [1]; at 3.7 µM -4% | [1]; [7] 34% | [1]; at 11.0 µM 35% | [1]; [8] 67% | [2]; at 1.2 µM -21% | [2]; at 3.7 µM -10% | [2]; [7] 45% | [2]; at 11.0 µM -2% | [3]; [7] -6% | [5]; at 1.2 µM 8% | [5]; at 3.7 µM 27% | [5]; [7] 34% | [5]; at 11.0 µM 15% | [6]; [7] 36% | [6]; [8] 56%
active: [1]; at 33.0 µM 95% | [1]; at 50.0 µM 90.4% | [1]; at 100.0 µM 93% | [2]; at 33.0 µM 97% | [2]; [8] 79% | [2]; at 50.0 µM 92% | [2]; at 100.0 µM 96% | [3]; [8] 98% | [4]; [7] 74% | [4]; [8] 99% | [5]; at 33.0 µM 97% | [5]; [8] 98% | [5]; at 100.0 µM 95% | [6]; at 50.0 µM 90.3%

O=[As]c1ccc(F)cc1 (stereo not drawn)
inactive: [1]; [7] 36% | [2]; [7] 24% | [3]; [7] 21% | [4]; [7] 12% | [5]; [7] 53% | [6]; [7] 22%
active: [1]; [8] 99% | [1]; at 50.0 µM 99.2% | [2]; [8] 100% | [2]; at 50.0 µM 99.5% | [3]; [8] 99% | [3]; at 50.0 µM 99.6% | [4]; [8] 100% | [4]; at 50.0 µM 99% | [5]; [8] 99% | [5]; at 50.0 µM 99.1% | [6]; [8] 99% | [6]; at 50.0 µM 99%

O=C(Nc1cccc2ccccc12)N(CCBr)CCBr
active: [1]; [8] 73% | [1]; at 50.0 µM 89.1% | [2]; [8] 73% | [3]; [8] 75% | [3]; at 50.0 µM 87.8% | [6]; [8] 95%
inactive: [1]; [7] 2% | [2]; [7] 2% | [2]; at 50.0 µM 28.1% | [3]; [7] 14% | [4]; [7] 1% | [4]; [8] 20% | [4]; at 50.0 µM 40.5% | [5]; [7] -9% | [5]; [8] 23% | [5]; at 50.0 µM 12% | [6]; [7] 36% | [6]; at 50.0 µM 59.6%

NNP(=O)(OCc1ccccc1)N(CCCl)CCCl (stereo not drawn)
inactive: [1]; [7] -6% | [1]; [8] 1% | [1]; at 50.0 µM -10.4% | [2]; [7] 2% | [2]; [8] 5% | [2]; at 50.0 µM 12.4% | [3]; [7] -3% | [3]; [8] 5% | [3]; at 50.0 µM 9.4% | [4]; [7] -1% | [4]; [8] 39% | [4]; at 50.0 µM 50.3% | [5]; [7] -5% | [5]; [8] 9% | [5]; at 50.0 µM 7.05% | [6]; [7] -3% | [6]; [8] 0% | [6]; at 50.0 µM 25.9%

O=[N+]([O-])c1cc([N+](=O)[O-])c2nsnc2c1
inactive: [1]; at 1.2 µM 18% | [1]; [7] 69% | [2]; at 1.2 µM -1% | [2]; at 3.7 µM 15% | [2]; [7] -2% | [3]; [7] -19% | [4]; [7] -20% | [5]; at 1.2 µM 5% | [5]; at 3.7 µM 52% | [5]; [7] 5% | [6]; [7] 2%
active: [1]; at 3.7 µM 71% | [1]; at 11.0 µM 99% | [1]; at 33.0 µM 99% | [1]; [8] 98% | [1]; at 50.0 µM 99.6% | [1]; at 100.0 µM 99% | [2]; at 11.0 µM 100% | [2]; at 33.0 µM 100% | [2]; [8] 99% | [2]; at 50.0 µM 99.5% | [2]; at 100.0 µM 99% | [3]; [8] 99% | [3]; at 50.0 µM 99.2% | [4]; [8] 99% | [4]; at 50.0 µM 99.3% | [5]; at 11.0 µM 99% | [5]; at 33.0 µM 99% | [5]; [8] 98% | [5]; at 50.0 µM 99.2% | [5]; at 100.0 µM 98% | [6]; [8] 98% | [6]; at 50.0 µM 99.1%

O=[N+]([O-])c1ccc(N(CCS(=O)O)c2ccc([N+](=O)[O-])cc2[N+](=O)[O-])c([N+](=O)[O-])c1
active: [2]; at 50.0 µM 81.6% | [3]; at 50.0 µM 78.3% | [4]; at 50.0 µM 79.3% | [5]; at 50.0 µM 81.1% | [6]; at 50.0 µM 70.7%
inactive: [1]; [7] 35% | [1]; [8] 35% | [1]; at 50.0 µM 42.1% | [2]; [7] 24% | [2]; [8] 24% | [3]; [7] 49% | [3]; [8] 49% | [4]; [7] 23% | [4]; [8] 23% | [5]; [7] 20% | [5]; [8] 20% | [6]; [7] 36% | [6]; [8] 36%

CCN(CC)[P+](c1ccc(OC)cc1OC)(N(CC)CC)N(CC)CC
inactive: [4]; [7] 69%
active: [1]; [7] 80% | [1]; [8] 95% | [1]; at 50.0 µM 82.8% | [2]; [7] 70% | [2]; [8] 96% | [2]; at 50.0 µM 85.2% | [3]; [7] 88% | [3]; [8] 96% | [3]; at 50.0 µM 86.5% | [4]; [8] 94% | [4]; at 50.0 µM 82% | [5]; [7] 88% | [5]; [8] 96% | [5]; at 50.0 µM 87.7% | [6]; [7] 73% | [6]; [8] 95% | [6]; at 50.0 µM 88.6%

NP(=O)(O)N(CCCl)CCCl
active: [1]; [8] 73% | [1]; at 50.0 µM 83.5% | [4]; [8] 78%
inactive: [1]; [7] -3% | [2]; [7] 3% | [2]; [8] 29% | [2]; at 50.0 µM 14.7% | [3]; [7] -1% | [3]; [8] 45% | [3]; at 50.0 µM 25.7%

Reference: PubChem BioAssay (NCI)
